Assay results from PubChem BioAssay AID836 (Columbia University Molecular Screening Center, 2007).
The entries are a selection whose mix differs from that of the whole data set. The source made the active and inactive calls.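 The calls were made as follows: active = inhibition above the batch mean plus 3 SD and confirmed as a hit by visual image inspection (cut at about 30% in these data, passing the limit was not always enough); inconclusive = above the inhibition threshold but rejected on visual inspection; inactive = the rest.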

Assay: disruptors of actin filament network in HUVEC – imaging, phalloidin staining, high-content imaging, primary screen (AID 836)
Settings: HUVEC TNFa F-actin phalloidin imaging, at 2 µM, active compounds read high

Structure (SMILES) | inhibition
c1ccc(CN2CCC(Nc3ccccc3)CC2)cc1 | inactive: 12%
N/C(=N\O)c1c(N)no[n+]1[O-] | inactive: -41.1%
CN1CCC(Nc2cccc(F)c2)CC1 | inactive: -21.7%
O=C(NCC1(N2CCOCC2)CCCCC1)c1cc(=O)[nH]c2ccccc12 | inactive: 11.2%
N#CC1(Nc2ccccc2)CCN(CCc2ccccc2)CC1 | inactive: 20.8%
COc1ccc(NC2CCN(CCc3ccccc3)CC2)c(OC)c1 | inactive: 19.5%
O=C(NCC1(N2CCOCC2)CCCCC1)c1cc2ccccc2o1 | inactive: 3.7%
O=C(OC1CN2CCC1CC2)C1c2ccccc2Oc2ccccc21 (stereo not drawn) | inactive: -21%
